{"source": "patent US6376521B1", "about": "“A3 adenosine receptor antagonists” (The United States of America as represented by the …, priority 1998, dated 2002)", "molecular_target": "A2A adenosine receptors (Rattus norvegicus, UniProt P30543)", "assay": "Displacement of specific [3H]CGS 21680 binding in rat striatal membranes", "conditions": "Table 2; at 10^−4 M", "data": [{"compound": "CCCOC(=O)c1c(-c2ccccc2)nc(CC)c(C(=O)SCC2COC(C)(C)O2)c1CCC", "note": "(racemic)", "values": [{"measurement": "rA2A displacement of specific binding (class d)", "value": "d (10^−4) (Displacement of <10% of specific binding at the indicated concentration (M).)"}]}]}
